Among the data in PubChem BioAssay AID1724 (National Center for Advancing Translational Sciences (NCATS), 2009) are Potency values, retold here.

A short description of this assay: Confirmation Concentration-Response Assay for Inhibitors of the ERK Signaling Pathway using a Homogeneous Screening Assay. The note with it: HEK293 cells, hormone-stimulated phospho-ERK AlphaScreen. An excerpt: qHTS Assay for Inhibitors of the ERK Signaling Pathway using a Homogeneous Screening Assay
NIH Chemical Genomics Center [NCGC]
NIH Molecular Libraries Screening Centers Network [MLSCN]
Assay Submitter (PI): Dr. Wei Zheng, NCGC/NIH
The Ras/extracellular-signal-regulated kinase (ERK) mitogen activated protein (MAP) kinase signaling pathway (ERK1/2 cascade) plays is a key role in transmitting signals from the cell surface to the nucleus (Nishida and Gotoh 1993; Chang and Karin, 2001). The cascade is initiated by the small G-protein Ras, which recruits Raf […], where activation occurs. Alternatively, this pathway can be activated by elevating intracellular cAMP.
Activation of the ERK pathway is essential in increased cell division and cell survival. […]
HEK293 cells stably expressing type-1 vasopressin receptor (V1b) were maintained in DMEM medium (Invitrogen, Carlsbad, CA) at 37C under a humidified atmosphere containing 5% CO2 and 95% air. […] The ERK phosphorylation in cells was determined using an AlphaScreen assay kit provided by PerkinElmer. […] AC50 values were determined from concentration-response data modeled with the standard Hill equation. […]
(10) Detect the assay plate in an EnVision plate reader (PerkinElmer) using the AlphaScreen detection mode. […]
Background: In Alpha technology, singlet oxygen from a donor bead excites a nearby acceptor bead.

The entries are a selection whose mix differs from that of the whole data set. Records with an inconclusive call do not appear. Calls of active or inactive are those of the source. Calls follow the shape of the dose curve; as a rule, active = well fitted inhibition curve with a large enough effect; inconclusive = small, poorly fitted or top-dose-only effect, or effect the other way; inactive = no such curve, though single readings can be large or run the other way.

For the compound `COc1cccc(-c2cc(=O)c3ccccc3o2)c1N`, the Potency was active: 3.16 µM.
